Assay results published in patent US20030176689A1, “Inhibitors of hepatitis C virus protease” (priority 2001, published 2003).

Amino acid sequences for entries named in this document (tags omitted). Residues count along the entry.
UniProt P27958, 1027-1207: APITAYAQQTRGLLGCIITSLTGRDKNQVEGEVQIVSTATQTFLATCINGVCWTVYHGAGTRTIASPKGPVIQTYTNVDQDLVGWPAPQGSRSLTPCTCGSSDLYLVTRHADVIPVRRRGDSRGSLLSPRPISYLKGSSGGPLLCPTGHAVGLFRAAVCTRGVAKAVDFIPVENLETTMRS
UniProt P27958, 1027-1208: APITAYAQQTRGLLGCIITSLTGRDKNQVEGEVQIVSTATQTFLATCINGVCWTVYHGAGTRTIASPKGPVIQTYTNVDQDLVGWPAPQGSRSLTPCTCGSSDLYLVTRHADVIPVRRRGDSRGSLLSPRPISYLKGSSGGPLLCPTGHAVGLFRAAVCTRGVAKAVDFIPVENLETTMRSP

Experiments:
NS3 protease = NS3 protease (Hepatitis C virus genotype 1a, UniProt P27958); assay: Rates of NS3 in the presence of short NS4A peptides; assay type: biochemical, HCV; settings: substrate 5A-pNA subsaturating; 66 to 360 μM peptide
Method: The ability of the short peptides to activate the NS3 protease was tested at several concentrations between 66 and 360 μM peptide. The concentration of substrate 5A-pNA was subsaturating.

HCV NS3 protease domain = target: T1, HCV NS3 protease domain (Hepatitis C virus genotype 1a, UniProt P27958); assay: FAC-MS (frontal affinity chromatography with in-line MS) binding to immobilized NS3
T1 construct: immobilization of the NS3 protease domain on streptavidin coated beads; made in house; host or cells: E. coli
Excerpt: An assay using frontal affinity chromatography (FAC) with an in-line mass spectrometer (MS) as described by Schriemer et al. 1998 Agnew. Chem. Int. Ed. 37, 3383-3387 (referred to as FAC-MS) was adapted to identify NS3 protease inhibitors. Briefly, a HCV NS3 protease domain was cloned into a site in a vector that allows for the recombinant NS3 protein to be biotinylated when expressed in E. coli. This provides for immobilization of the NS3 protease domain on streptavidin coated beads which are packed into a miniaturized column. The column is connected in-line to a mass spectrometer. This arrangement facilitates assaying combinatorial compounds individually from a library of peptides for activity in binding the immobilized NS3 protease domain. As the library is continually infused through the column, each compound produces a sigmoidal curve as its elution profile.
The inventors first examined the ability of mutant NS4A peptides to bind to NS3 using the FAC-MS assay described in Example 1. The sequence of the peptides described here is described by the wild-type residue modified, the position of the residue in the wildtype NS4A polypeptide, and the residue substituted at that position. […] “Pen” refers to Penacillamine; “chA” refers to β-cyclohexylalanine; “t” refers to “tert” (so that, for example, “t-L” refers to tert-leucine. […]

Molecule `CC[C@H](C)[C@H](NC(=O)[C@H](CCCNC(=N)N)NC(=O)CN)C(=O)N[C@H](C(=O)N[C@@H](CC(C)C)C(=O)O)C(C)C` [GRIVL] has a Rate (NS3 protease) of 1.76 µmol/min/mg and a Kd (HCV NS3 protease domain) of 178 µM.
